Assay results taken from PubChem BioAssay AID743397 (Broad Institute, 2014).
This is a selection; strong and weak results do not stand in their true shares. Calls of active or inactive are those of the source.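 How the source made its calls: active means mean replicate inhibition of at least 30% and at least 1% of replicates passing that level; inconclusive means only one of the two criteria is met; inactive means neither criterion is met.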

tested on: Voltage-dependent L-type calcium channel subunit alpha-1D (CaV1.3) ICDI/IQ interaction; experiment: Primary screen for inhibitors of IQ motif and Ca2+-dependent inactivation inhibitor domain binding in CACNA1D, Förster resonance energy transfer in living cells, single-concentration test (AID 743397); conditions: HEK cells, CFP/YFP FRET ICDI-IQ, plate reader, 10 min; at 12.3 µM; hits give high values; percent FRET-ratio fall versus neutral wells;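 further: 0% = median of the neutral control wells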

SMILES	inhibition
O=[N+]([O-])c1ccc(Nc2ccc(Oc3ccc([N+](=O)[O-])cc3[N+](=O)[O-])cc2)c([N+](=O)[O-])c1	inactive: -4.07%
O=C(O)C(O)c1ccc(N(CCCl)CCCl)cc1 (centres undefined)	inactive: -5.05%
CCOC(=O)Nc1ccc([As](=O)(O)O)c(O)c1	inactive: -6.17%
CC1CCNP(=O)(N(CCCl)CCCl)O1 (centres undefined)	inactive: -16.3%
COP(=O)(OC)N1CC1c1ccccc1 (centres undefined)	inactive: -10.5%
CCCCOc1ccc(C(=O)NCC2(N3CCCCC3)CCCCC2)cc1OC	inactive: -2.54%
Cc1cc(SC(NC(=O)c2ccccc2)C(Cl)(Cl)Cl)nc(C(C)C)n1 (centres undefined)	inactive: -6.15%
O=C(OC1CN2CCC1CC2)c1cccc([N+](=O)[O-])c1 (centres undefined)	inactive: -3.3%
CCOC(=O)c1ccc(NC(=O)C(C)(CCl)SC)cc1 (centres undefined)	inactive: -4.91%
CCC(C)N(CC(C)C)C(=S)SC(NC(C)=O)C(Cl)(Cl)Cl (centres undefined)	inactive: -5.6%
COP1(=S)c2c(C)nn(CCC#N)c2N=C(c2ccc(F)cc2)N1C (centres undefined)	inactive: -8.89%
COC(=O)C1(C)COP(=O)(N2CCCC2)OC1 (centres undefined)	inactive: -3.66%
O=C(O)C(=O)c1ccc(N(CCCl)CCCl)cc1	inactive: -5.65%
O=C(COc1ccccc1)OC1CN2CCC1CC2 (centres undefined)	inactive: -2.52%
O=C(Nc1ccncc1[N+](=O)[O-])c1ccc([N+](=O)[O-])cc1[N+](=O)[O-]	inactive: -19.2%
COc1ccccc1CNC(=O)COC(=O)C(O)(c1ccccc1)c1ccccc1	inactive: -5.38%
CN(C(=O)Cc1ccc(Cl)c(Cl)c1)[C@@H]1CCCC[C@H]1N1CCCC1	inactive: -4.56%
CC(C)/C=N\N=C(\N)N[N+](=O)[O-]	inactive: 3.83%
CCC1=CC2Cc3nc4ccc(Cl)cc4c(N)c3C(C1)C2 (centres undefined)	inactive: -1.49%
O=P1(Nc2ccccn2)COc2ccccc2OC1	inactive: -2.41%

SMILES	inhibition
CCOP(=O)(NC(=NC(C)c1ccccc1)NC(C)c1ccccc1)OCC (centres undefined)	inactive: -2.83%
CN(CCCl)Cc1cc(Cl)c(NC2=NCCN2)c(Cl)c1	inactive: -5.82%
CCOP(=O)(Nc1ccc(C)cn1)OCC	inactive: -4.27%
Clc1n[nH]nc1-c1nn[nH][15n]1	inactive: -4.52%
O=P1(N(CCCl)CCCl)NCCC(C(F)(F)F)O1 (centres undefined)	inactive: -6.86%
CC(C)(C)C(=O)NC(Sc1ncccn1)C(Cl)(Cl)Cl (centres undefined)	inactive: -6.96%
Cc1ccc(S(=O)(=O)N(CCCN)CCCc2c(C)nc(N)[nH]c2=O)cc1	inactive: -4.05%
O=P1(Nc2ncccn2)COc2ccccc2OC1	inactive: -4.31%
Nc1cccc([As](=O)(O)c2ccccc2)c1	inactive: -3.4%
NS(=O)(=O)c1cccc(NC(=O)COC(=O)C(O)(c2ccccc2)c2ccccc2)c1	inactive: -11.5%
O=P1(Nc2ccc(Br)cn2)COc2ccccc2OC1	inactive: -3.34%
Cc1ccc(OCC(=O)OC2CN3CCC2CC3)cc1 (centres undefined)	inactive: -4.71%
O=[As](O)(c1cccs1)c1cccs1	inactive: -18.5%
Cc1nn(-c2ccccc2)c2c1P(=O)(N1CCOCC1)N(C)C(c1ccccc1)=N2 (centres undefined)	inactive: -7.7%
Cc1ccc(C(=O)OC2CN3CCC2CC3)cc1 (centres undefined)	inactive: -3.31%
CC1CCC(C(C)C)C(OP(=O)(Nc2ccccn2)c2ccccc2)C1 (centres undefined)	inactive: -3.98%
CN(C)C1(CNC(=O)c2ccc(S(C)(=O)=O)cc2)CCCCC1	inactive: -4.74%
O=C(/C=C/c1ccccc1)OC1CN2CCC1CC2 (centres undefined)	inactive: -4.39%
CCCC1OP(=O)(Nc2ccccc2)OCC1CC (centres undefined)	inactive: -9.68%
NC(=O)Nc1ccc([As](=O)(O)O)cc1	inactive: -6.48%

SMILES	inhibition
N#CCCN(C(=O)COC(=O)C(O)(c1ccccc1)c1ccccc1)c1ccc(F)cc1	inactive: -2.7%
CN(C(=O)Cc1ccccc1)[C@@H]1CC[C@]2(CCCO2)C[C@H]1N1CCCC1	inactive: -4.64%
CCOP1(=S)c2c(C)nn(CCC#N)c2N=C(c2ccc(F)cc2)N1C (centres undefined)	inactive: -7.58%
O=[N+]([O-])c1ccc2c(c1)nnn2O	inactive: -9.36%
CN(C(=O)Cc1ccc(Cl)c(Cl)c1)[C@H]1CC[C@@]2(CCCO2)C[C@@H]1N1CCCC1	inactive: -5.36%
CCOP1(=S)c2c(C)nn(CCC#N)c2N=C(c2ccccc2F)N1C (centres undefined)	inactive: -9.56%
O=P(Nc1nccs1)(Oc1ccccc1)Oc1ccccc1	inactive: -5.49%
O=C(O)COc1ccc([As](=O)(O)O)cc1[N+](=O)[O-]	inactive: -2.17%
Nc1ccccc1[As](=O)(O)c1ccccc1	inactive: -15.7%
Cc1ccc(NCCc2c([N+](=O)[O-])cc([N+](=O)[O-])cc2[N+](=O)[O-])cc1	inactive: -7.02%
Nc1cccc2c([As](=O)(O)O)cccc12	inactive: -5.64%
CCCOP(=S)(Nc1nc(N)cc(=O)[nH]1)OCCC	inactive: -13.8%
COc1cc(C2NCCC3(OCCO3)C2(C)C)cc(OC)c1OC (centres undefined)	inactive: -9.47%
CCOP(=O)(Nc1cccc2ccccc12)OCC	inactive: 14%
O=C(OC1CN2CCC1CC2)c1ccc(Cl)cc1 (centres undefined)	inactive: -5.32%
COc1cc(C(=O)NCC2(N3CCOCC3)CCCCC2)cc(Cl)c1OC(C)C	inactive: -4.37%
O=[As](O)(O)c1cccnc1	inactive: -12.6%
CS(=O)(=O)c1ccc(Cl)c(NC(=O)COC(=O)C(O)(c2ccccc2)c2ccccc2)c1	inactive: -5.05%
O=[As](O)(c1cccc(O)c1)c1cccc(O)c1	inactive: -15%
